Data from PubChem BioAssay AID431 (Sanford-Burnham Center for Chemical Genomics, 2006).
Only a part is listed here, and it is no random draw. Entries with a potency or affinity are not part of this list. The source made the active and inactive calls.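 The calls were made as follows: active = compounds whose percent cytotoxicity in the single-dose primary screen, scaled between solvent and toxic-drug controls, exceeds 50; inactive = the rest.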

Assay: cytotoxicity in KRAS-transformed pancreatic duct cells, primary screen, cell-based, fluorescence, HTS (AID 431);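 also: 0% = DMSO solvent wells and 100% = doxorubicin-treated wells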
Conditions: HPDE-C7K KRASV12 cells, Alamar Blue viability, 48 h; at 10 µM; hits give high values
With COc1ccccc1OP(C)(=O)Nc1ccc(C)cc1 (stereo unspecified) the cytotoxicity was inactive: -3.9%.
